Values of other authors, collected in patent publication US20170210810A1, “BIOMARKER PROFILES FOR PREDICTING OUTCOMES OF CANCER THERAPY WITH ERBB3 INHIBITORS AND/OR CHEMOTHERAPIES” (Merrimack Pharmaceuticals, Inc., priority 2013, published 2017).

Tested on: tumors that express EGFR
Conditions: patients whose tumors express EGFR; monotherapy; cited from earlier work

For “cetuximab: monoclonal antibody that targets the epidermal growth factor receptor (EGFR)”, the patients who respond is listed as 15-20%.
